Tests used:
CEREP profiling = conditions: cited from earlier work
5HT3 receptors = conditions: cited from earlier work
α7-nAChRs = α7-nAChRs (Mus musculus, UniProt P49582); conditions: mice, biodistribution studies

Chains of the proteins cited; added tags and fusions are not shown. Residues count along the entry.
UniProt P49582, 23-502: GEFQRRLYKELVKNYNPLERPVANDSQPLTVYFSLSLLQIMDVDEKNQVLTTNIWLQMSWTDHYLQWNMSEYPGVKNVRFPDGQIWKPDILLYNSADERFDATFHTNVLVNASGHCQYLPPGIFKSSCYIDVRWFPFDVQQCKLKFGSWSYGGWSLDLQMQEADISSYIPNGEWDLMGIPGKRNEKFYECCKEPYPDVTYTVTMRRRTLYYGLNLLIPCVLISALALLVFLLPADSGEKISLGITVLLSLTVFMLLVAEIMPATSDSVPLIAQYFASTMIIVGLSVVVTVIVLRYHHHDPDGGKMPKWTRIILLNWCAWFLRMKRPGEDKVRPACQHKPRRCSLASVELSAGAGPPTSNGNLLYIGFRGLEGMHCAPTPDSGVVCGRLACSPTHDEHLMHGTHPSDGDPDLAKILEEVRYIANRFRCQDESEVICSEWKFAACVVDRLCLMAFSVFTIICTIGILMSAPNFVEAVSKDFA

SMILES | interaction in the CEREP profiling (CEREP profiling) | interaction at 5HT3 receptors (5HT3 receptors) | blood-brain barrier penetration (α7-nAChRs)
CN1C[C@@H]2CN(c3ccc(-c4ccc5[nH]ccc5c4)nc3)C[C@@H]21 [(1R,5R)-1, 5-(5-((1R,5R)-6-methyl-3,6-diazabicyclo[3.2.0]heptan-3-yl)pyridin-2-yl)-1H-indole] | none or weak interaction | no interaction | –
[11CH3]N1CC2CN(c3ccc(-c4ccc5[nH]ccc5c4)nc3)CC21 (racemic) [[^11C]rac-1, 5-(5-(6-[^11C]methyl-3,6-diazabicyclo[3.2.0]heptan-3-yl)pyridin-2-yl)-1H-indole] | – | – | penetrates the blood-brain barrier

Source: article PMC3527104 (Bioorganic & medicinal chemistry, 2012)
